Read-outs that look alike come from different tables or passages of the source.
Biological target: T1, human ferroportin (Homo sapiens, UniProt Q9NP59)
T1 sequence (Q9NP59 1-571): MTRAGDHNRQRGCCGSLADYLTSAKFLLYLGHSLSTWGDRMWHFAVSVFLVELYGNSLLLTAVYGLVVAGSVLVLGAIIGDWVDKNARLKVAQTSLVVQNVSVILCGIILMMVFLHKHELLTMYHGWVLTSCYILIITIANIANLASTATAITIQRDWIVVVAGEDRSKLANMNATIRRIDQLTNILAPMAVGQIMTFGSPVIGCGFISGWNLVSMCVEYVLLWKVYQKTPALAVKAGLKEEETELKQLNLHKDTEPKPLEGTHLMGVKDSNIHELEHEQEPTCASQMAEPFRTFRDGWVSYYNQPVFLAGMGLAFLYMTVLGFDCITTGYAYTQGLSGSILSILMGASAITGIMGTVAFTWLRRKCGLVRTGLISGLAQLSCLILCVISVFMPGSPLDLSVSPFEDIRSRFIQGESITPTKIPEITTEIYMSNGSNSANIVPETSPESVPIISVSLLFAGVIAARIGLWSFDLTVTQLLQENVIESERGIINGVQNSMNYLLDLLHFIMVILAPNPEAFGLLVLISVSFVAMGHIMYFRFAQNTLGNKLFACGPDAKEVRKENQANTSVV
Experiment: FPN activity assay: internalization/degradation of ferroportin-GFP in stably transfected HEK293 cells
Conditions: read-out: FPN EC50, HEK293 ferroportin-GFP cells, at least 18 hours incubation

| Substance | DC50 (Table 3B) | DC50 (Table 3A) |
| --- | --- | --- |
| Isovaleric Acid-D-T-H-F-P-[Cys]-I-K-F-[Lys(1PEG2_1PEG2_Ahx_C18_Diacid)]-P-R-S-K-[Sarc]-[Cys]-K-NH2 [Compound 210] | 27.8 nM | – |
| Isovaleric Acid-D-T-H-F-P-[Cys]-I-K-F-[Lys(PEG12_Sarc_Palm)]-P-R-S-K-[Sarc]-[Cys]-K-NH2 [Compound 211] | 9.21 nM | – |
| Isovaleric Acid-D-T-H-F-P-[Cys]-I-[(D)Lys]-[bhPhe]-[Lys(Palm)]-K-[Cys]-NH2 [Compound 205] | 4.23 nM | – |
| Isovaleric Acid-D-T-H-F-P-[Cys]-I-[Lys(Ac)]-F-[Lys(PEG12_Palm)]-P-[Lys(Ac)]-S-[Lys(Ac)]-[Sarc]-[Cys]-K-NH2 [Compound 214] | 7.19 nM | – |
| Isovaleric Acid-D-T-H-F-P-[Cys]-I-[Lys(IsoGlu_Palm)]-F-E-P-R-S-K-G-[Cys]-[MeLys]-NH2 [Compound 235] | 10.3 nM | – |
| Isovaleric Acid-D-T-H-F-P-[Cys]-I-[Lys(IsoGlu_Palm)]-F-E-P-R-S-K-[Sarc]-[Cys]-K-NH2 [Compound 237] | 11.4 nM | – |
| Isovaleric Acid-D-T-H-F-P-[Cys]-I-[Lys(IsoGlu_Palm)]-F-E-P-R-S-[MeLys]-G-[Cys]-K-NH2 [Compound 238] | 10.6 nM | – |
| Isovaleric Acid-D-T-H-F-P-[Cys]-I-[Lys(IsoGlu_Palm)]-F-E-P-R-[MeSer]-K-G-[Cys]-K-NH2 [Compound 239] | 6.34 nM | – |
| Isovaleric Acid-D-T-H-F-P-[Cys]-I-[Lys(IsoGlu_Palm)]-F-E-P-[MeArg]-S-K-G-[Cys]-K-NH2 [Compound 240] | 11.1 nM | – |
| Isovaleric Acid-D-T-H-F-P-[Cys]-I-[Lys(IsoGlu_Palm)]-F-[MeGlu]-P-R-S-K-G-[Cys]-K-NH2 [Compound 241] | 20.8 nM | – |
| Isovaleric Acid-D-T-H-F-P-[Cys]-I-[Lys(IsoGlu_Palm)]-[MePhe]-E-P-R-S-K-G-[Cys]-K-NH2 [Compound 242] | 33.3 nM | – |
| Isovaleric Acid-D-T-H-F-P-[Cys]-L-[Lys(IsoGlu_Palm)]-F-E-P-R-S-K-G-[Cys]-K-NH2 [Compound 216] | 16.6 nM | – |
| Isovaleric Acid-D-T-H-F-P-[Cys]-[MeLeu]-[Lys(IsoGlu_Palm)]-F-E-P-R-S-K-G-[Cys]-K-NH2 [Compound 244] | 9.59 nM | – |
| Isovaleric Acid-D-T-H-[Dpa]-P-C-I-[(D)Lys]-[bhPhe]-[Lys(1Peg2_1Peg2_Ahx_C18_Diacid)]-[(D)Lys]-C-NH2 [Compound 43] | – | 283 nM |
| Isovaleric Acid-D-T-H-[Dpa]-P-C-I-[(D)Lys]-[bhPhe]-[Lys(2Peg11′_Ahx_Palm)]-[(D)Lys]-C-NH2 [Compound 37] | – | 19.6 nM |
| Isovaleric Acid-D-T-H-[Dpa]-P-C-I-[(D)Lys]-[bhPhe]-[Lys(2Peg11′_Palm)]-P-R-S-K-C-NH2 [Compound 33] | – | 25.4 nM |
| Isovaleric Acid-D-T-H-[Dpa]-P-C-I-[(D)Lys]-[bhPhe]-[Lys(2Peg11′_Palm)]-P-R-S-K-[Sarc]-C-NH2 [Compound 34] | – | 23.6 nM |
| Isovaleric Acid-D-T-H-[Dpa]-P-C-I-[(D)Lys]-[bhPhe]-[Lys(2Peg11′_Peg11_Palm)]-[(D)Lys]-C-NH2 [Compound 41] | – | 18.5 nM |
| Isovaleric Acid-D-T-H-[Dpa]-P-C-I-[(D)Lys]-[bhPhe]-[Lys(2Peg11′_Sarc_Palm)]-[(D)Lys]-C-NH2 [Compound 36] | – | 10.9 nM |
| Isovaleric Acid-D-T-H-[Dpa]-P-C-I-[(D)Lys]-[bhPhe]-[Lys(Ahx_Ahx_Ahx_Palm)]-[(D)Lys]-C-NH2 [Compound 40] | – | 18.5 nM |
| Isovaleric Acid-D-T-H-[Dpa]-P-C-I-[(D)Lys]-[bhPhe]-[Lys(Ahx_Ahx_Palm)]-[(D)Lys]-C-NH2 [Compound 39] | – | 19.3 nM |

| Substance | DC50 (Table 3B) | DC50 (Table 3A) |
| --- | --- | --- |
| Isovaleric Acid-D-T-H-[Dpa]-P-C-I-[(D)Lys]-[bhPhe]-[Lys(Lys[Peg11_Palm]2)]-[(D)Lys]-C-NH2 [Compound 38] | – | 33 nM |
| Isovaleric Acid-D-T-H-[Dpa]-P-[Cys]-I-K-F-[Lys(PEG12_Palm)]-P-R-S-K-[Sarc]-[Cys]-K-NH2 [Compound 212] | 20.7 nM | – |
| Isovaleric Acid-D-T-H-[Dpa]-P-[Cys]-I-[(D)Lys(PEG12_OMe)]-[bhPhe]-[Lys(1PEG2_1PEG2_IsoGlu_C18_Diacid)]-[(D)Lys(PEG12_OMe)]-[Cys]-NH2 [Compound 253] | > 3000 nM | – |
| Isovaleric Acid-D-T-H-[Dpa]-P-[Cys]-I-[(D)Lys]-[MePhe]-[Lys(Ahx_Palm)]-[(D)Lys]-[Cys]-NH2 [Compound 202] | 16.2 nM | – |
| Isovaleric Acid-D-T-H-[Dpa]-P-[Cys]-I-[bhPhe]-[Lys(Ahx_Palm)]-[(D)Lys]-[Cys]-NH2 [Compound 206] | 10.8 nM | – |
| Isovaleric Acid-D-T-H-[Dpa]-P-[Cys]-[MeLeu]-[(D)Lys]-[bhPhe]-[Lys(Ahx_Palm)]-[(D)Lys]-[Cys]-NH2 [Compound 201] | 12.5 nM | – |
| Isovaleric Acid-D-T-H-[MePhe]-P-[Cys]-I-[(D)Lys]-[bhPhe]-[Lys(Ahx_Palm)]-[(D)Lys]-[Cys]-NH2 [Compound 203] | 28 nM | – |
| Isovaleric Acid-[(D)Asp]-T-H-F-P-[Cys]-I-[Lys(IsoGlu_Palm)]-F-E-P-R-S-K-G-[Cys]-K-NH2 [Compound 204] | 5.52 nM | – |
| Isovaleric acid-D-T-H-[Dpa]-P-C-I- Lys[Ahx-Behenic_Acid]-bhPhe-(D)Lys-C-NH2 [Compound 8] | – | 550 nM |
| Isovaleric acid-D-T-H-[Dpa]-P-C-I-(D)Lys-bhPhe-Lys[Palm]-K-C-NH2 [Compound 16] | – | 5.85 nM |
| Isovaleric acid-D-T-H-[Dpa]-P-C-I-(D)Lys-bhPhe-[Lys(Ahx-Palm)]-(D)Lys-C-NH2 [Compound 20] | – | 6.66 nM |
| Isovaleric acid-D-T-H-[Dpa]-P-C-I-(D)Lys-bhPhe-[Lys(Ahx-Palm)]-Arg(Nitro)-C-NH2 [Compound 22] | – | 30.1 nM |
| Isovaleric acid-D-T-H-[Dpa]-P-C-I-(D)Lys-bhPhe-[Lys(Ahx-Palm)]-Cit-C-NH2 [Compound 24] | – | 45.8 nM |
| Isovaleric acid-D-T-H-[Dpa]-P-C-I-(D)Lys-bhPhe-[Lys(Ahx-Palm)]-K-C-NH2 [Compound 17] | – | 8.29 nM |
| Isovaleric acid-D-T-H-[Dpa]-P-C-I-(D)Lys-bhPhe-[Lys(Ahx-Palm)]-[Spiral_Pip]-C-NH2 [Compound 21] | – | 37.5 nM |
| Isovaleric acid-D-T-H-[Dpa]-P-C-I-Arg(Nitro)-bhPhe-[Lys(Ahx-Palm)]-(D)Lys-C-NH2 [Compound 28] | – | 27.1 nM |
| Isovaleric acid-D-T-H-[Dpa]-P-C-I-Cit-bhPhe-[Lys(Ahx-Palm)]-(D)Lys-C-NH2 [Compound 30] | – | 26.6 nM |
| Isovaleric acid-D-T-H-[Dpa]-P-C-I-Lys[1Peg2-1Peg2-Ahx-C18_Diacid]-bhPhe-(D)Lys-C-NH2 [Compound 11] | – | 12.7 nM |
| Isovaleric acid-D-T-H-[Dpa]-P-C-I-Lys[1Peg2-1Peg2-isoGlu-Behenic_Acid]-bhPhe-(D)Lys-C-NH2 [Compound 9] | – | 18.4 nM |
| Isovaleric acid-D-T-H-[Dpa]-P-C-I-Lys[Ahx-isoGlu-Palm]-bhPhe--(D)Lys-C-NH2 [Compound 5] | – | 0.75 nM |
| Isovaleric acid-D-T-H-[Dpa]-P-C-I-Lys[isoGlu-Palm]-bhPhe-(D)Lys-C-NH2 [Compound 6] | – | 6.16 nM |
